## Ab-95 light chain CDR variants: yeast mating affinities

From the AlphaSeq antibody data of Engelhart et al. 2022 (doi:10.1038/s41597-022-01779-4), copy in the FLAb collection.

Binding partner: SARS-CoV-2 spike HR2 peptide, sequence PDVDLGDISGINAS.

Each scFv is VH, a (GGGGS)3 linker, VL, as in the parent Ab-95, and differs from it in the CDRs of the light chain only.
VH: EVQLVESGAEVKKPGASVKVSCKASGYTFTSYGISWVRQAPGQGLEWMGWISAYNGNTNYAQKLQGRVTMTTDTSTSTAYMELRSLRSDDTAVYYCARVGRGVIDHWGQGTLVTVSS
VL: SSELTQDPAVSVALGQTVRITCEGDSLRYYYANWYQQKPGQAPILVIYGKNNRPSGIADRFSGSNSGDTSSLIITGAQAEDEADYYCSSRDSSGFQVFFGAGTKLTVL

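Phage display of a naive human antibody library on the peptide gave the parent. The library (AAYL52) carries one to three amino acid substitutions per variant, with no insertions or deletions. AlphaSeq pools MATa yeast showing the antibodies with MATalpha yeast showing the peptide. After mating in shaken culture at 30 °C for 16 h, diploids were selected and their barcode pairs sequenced. The ratio of observed to expected reads was calibrated, replicate by replicate, on BCL2-family standards whose Kd was known from biolayer interferometry. The assay was run in three technical replicates.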

Variants are written as CDR1, CDR2 and CDR3 of the light chain (limits as in the source). Parent: EGDSLRYYYAN, GKNNRPS, SSRDSSGFQVF. Affinities are written as log10 Kd with Kd in nM; a lower number is a better binder. A mean of the replicates is given; it leaves out those without a signal. "nd" means that the variant was in the library but no mating with the target was seen in any replicate; the authors take this as a sign of poor binding, and no number exists. Nonspecific signal, from three strains lacking the peptide, appeared in 28% of pairings of library AAYL52, centred on 3.91 (5% of these signals below 2.90); values are not corrected for it.

Result 2.19 (3 of 3 replicates), variant MGDSLSYYYAN, GRNNRPS, SSRDSSGFQVF.
Result 3.50 (2 of 3 replicates), variant EGDSLRYYYAN, GKNNRPS, SSTWSSGDQVF.
Result 2.18 (3 of 3 replicates), variant EGDSLRYYYAN, GKNNRPS, WSRDSSWFQVF.
Result 3.51 (3 of 3 replicates), variant EGDSLRYNYAG, GKNNRPS, HSRDSSGFQVF.
Result 3.22 (2 of 3 replicates), variant EGDFLRYYYAN, GKNNRPS, SSRDSSGCQVF.
Result 4.34 (2 of 3 replicates), variant EGKSLRKYYAN, GKNNRPS, WSRDSSGFQVF.
Result 4.83 (2 of 3 replicates), variant EGPSLRFYYAK, GKNNRPS, SSRDSSGFQVF.
Result 2.95 (3 of 3 replicates), variant EGHSLRYYYAN, GKNNRPS, SSRHSSGFRVF.
Result 2.77 (3 of 3 replicates), variant EGDSLRYYYAN, GKQGRPS, SSRDSSGFQEF.
Result 3.73 (3 of 3 replicates), variant PGDSLQYYYAN, GKNNRPS, SSRDSSGFQNF.
Result 3.95 (1 of 3 replicates), variant EGDSLRYYHAP, GKNNRPS, SSRDSSGKQVF.
Result 4.12 (2 of 3 replicates), variant EGVPLRYYYAW, GKNNRPS, SSRDSSGFQVF.
Result nd (0 of 3 replicates), variant EGDSCRYYYAN, GKNCRPS, SSRDSSQFQVF.
Result 3.16 (3 of 3 replicates), variant EGDSVRYYYAN, GKNNRPS, RTRDSSGFQVF.
Result nd (0 of 3 replicates), variant EGLSLRYYYAN, FKNNRDS, SSRDSSGFQVF.
Result 3.46 (3 of 3 replicates), variant EGDSLAYYYAN, GKNKRPS, SSLDSSGFQVF.
Result nd (0 of 3 replicates), variant EGDSLRYYYAN, GTNNRPS, YSRDSSGFFVF.
Result nd (0 of 3 replicates), variant NGDSLRYYYAN, GKFNYPS, SSRDSSGFQVF.
Result 4.57 (2 of 3 replicates), variant EGDSLRYYYAN, GKVYRPS, SSRQSSGFQVF.
Result 2.71 (3 of 3 replicates), variant EGKSLRYYYAN, GKNNRPQ, SSRDSSGFQWF.
Result nd (0 of 3 replicates), variant EKDSLRYYYAN, GKNNRPS, SSADSSGFQYF.
Result nd (0 of 3 replicates), variant AGDSLRYYYAP, GKNNRPS, SSRDSSGFQVF.
Result 1.97 (3 of 3 replicates), variant QGDSLRYYYAN, GKNLRPS, SCRDSSGFQVF.
Result 5.59 (1 of 3 replicates), variant MGDSLQYYYAN, GKRNRPS, SSRDSSGFQVF.
Result 2.99 (3 of 3 replicates), variant EGDSRRYYYAN, GKNNRPS, SSRDSSGFFPF.
Result 2.76 (3 of 3 replicates), variant RGDSLRYYYAN, GKNNRPS, SSRHSSGFQAF.
Result 2.61 (3 of 3 replicates), variant EGDSLIYYYAN, GKNNRPS, SSRSSEGFQVF.
Result 3.95 (1 of 3 replicates), variant EPDSLRFYYAN, GKNNRPS, SSRDSSGFQVG.
Result nd (0 of 3 replicates), variant CGDSLRYYYRN, GKNNRPS, SSRDSSGFQVR.
Result 2.22 (3 of 3 replicates), variant EGDSLRFYYAN, GKNMRPS, SSRDSSGFQVF.
Result 3.33 (2 of 3 replicates), variant EGDSNRYYYAN, GLNNRPS, SSRDGSGFQVF.
Result 3.71 (2 of 3 replicates), variant EGDSLRYYYAN, GKNNRPS, MSRDSRGFWVF.
Result nd (0 of 3 replicates), variant EGDSLRYYYAY, GKNNRVS, SSRDSSGFQMF.
Result 2.92 (3 of 3 replicates), variant EGDSLRYYYAN, GKNNRCS, WSRDTSGFQVF.

In this assay the parent's reference entry averaged 2.31; its copy inside this library read 2.25.